Data taken from US9682960B2 (priority 2013, dated 2017).

Tested on: castrated (CX) immature male rats bearing a DHT implant
Settings: for CX + DHT Antagonistic activity % Inhibition Bulbo / CX + DHT Antagonistic activity % Inhibition SV / CX + DHT Antagonistic activity % Inhibition Prostate: 7 days; for CX + DHT Antagonistic activity % Inhibition Bulbo: bulbocavernosus muscles weight; for CX + DHT Antagonistic activity % Inhibition SV: seminal vesicles weight; for CX + DHT Antagonistic activity % Inhibition Prostate: ventral prostate weight

SMILES	CX + DHT Antagonistic activity % Inhibition Bulbo (0.5 mg/rat/po)	CX + DHT Antagonistic activity % Inhibition SV (0.5 mg/rat/po)	CX + DHT Antagonistic activity % Inhibition Prostate (0.5 mg/rat/po)	other results
Cc1c(N2C(=O)N(CCCOc3ccc(-c4cc[n+]([O-])cc4)c(C(F)(F)F)c3)C(C)(C)C2=O)ccc(C#N)c1Cl [EM-9334]	–	–	–	CX + DHT Antagonistic activity % Inhibition Bulbo (0.1 mg/rat po): −21 (0.1 mg/rat) %; CX + DHT Antagonistic activity % Inhibition SV (0.1 mg/rat po): 33 (0.1 mg/rat) %; CX + DHT Antagonistic activity % Inhibition Prostate (0.1 mg/rat/po): 33 (0.1 mg/rat) %
CC1(C)NC(=O)N(c2ccc(C#N)c(Cl)c2)C1=O [EM-9260]	84%	96%	71%	–
CC1(C)C(=O)N(c2ccc(C#N)c(F)c2)C(=S)N1CCCOc1ccc(-c2ccncc2)c(F)c1 [EM-9011]	66%	85%	63%	–
Cc1c(N2C(=O)N(CCCOc3ccc(-c4ccncc4)cc3C(F)(F)F)C(C)(C)C2=O)ccc(C#N)c1Cl [EM-9309]	–	–	–	CX + DHT Antagonistic activity % Inhibition Bulbo (0.1 mg/rat po): −53 ± 8 (n = 2, 0.1 mg/rat) %; CX + DHT Antagonistic activity % Inhibition SV (0.1 mg/rat po): 19 ± 8 (n = 2, 0.1 mg/rat) %; CX + DHT Antagonistic activity % Inhibition Prostate (0.1 mg/rat/po): 19 ± 12 (n = 2, 0.1 mg/rat) %
CC1(C)C(=O)N(c2ccc(C#N)c(C(F)(F)F)c2)C(=O)N1CCOc1ccc(-c2cc[n+]([O-])cc2)cc1 [EM-9180]	71%	85%	53%	–
Cc1ccc(-c2ccc(OCCCN3C(=S)N(c4ccc(C#N)c(C(F)(F)F)c4)C(=O)C3(C)C)cc2)cn1 [EM-8908]	48%	73%	55%	–
CC1(C)C(=O)N(c2ccc(C#N)c(C(F)(F)F)c2)C(=S)N1CCCOc1ccc(-c2ccncc2)c(F)c1 [EM-8851]	91%	86%	62%	–
Cc1c(N2C(=O)N(CCCOc3ccc(-c4cc[n+]([O-])cc4)cc3Cl)C(C)(C)C2=O)ccc(C#N)c1Cl [EM-9252]	−101%	35%	40%	–
Cc1c(N2C(=O)N(CCCOc3ccc(-c4cc[n+]([O-])cc4)c(Cl)c3)C(C)(C)C2=O)ccc(C#N)c1Cl [EM-9291]	−45%	56%	42%	–
CC1(C)C(=O)N(c2ccc(C#N)c(Cl)c2)C(=O)N1CCCOc1ccc(-c2ccncc2)c(F)c1 [EM-9115]	93 ± 2 (n = 2) %	89 ± 2 (n = 2) %	63 ± 2 (n = 2) %	–
Cc1c(N2C(=O)N(CCCOc3ccc4ccc[n+]([O-])c4c3)C(C)(C)C2=O)ccc(C#N)c1Cl [EM-9302]	–	–	–	CX + DHT Antagonistic activity % Inhibition Bulbo (0.1 mg/rat po): −16 (0.1 mg/ rat) %; CX + DHT Antagonistic activity % Inhibition SV (0.1 mg/rat po): 10 (0.1 mg/ rat) %; CX + DHT Antagonistic activity % Inhibition Prostate (0.1 mg/rat/po): 9 (0.1 mg/ rat) %
Cc1c(N2C(=O)C(C)(C)N(CCCOc3ccc(-c4ccncc4)cc3)C2=S)ccc(C#N)c1Cl [EM-8664]	−150%	−25%	36%	–
Cc1c(N2C(=O)C(C)(C)N(CCCOc3ccc(Oc4ccc(Cl)nc4)nc3)C2=S)ccc(C#N)c1Cl [EM-8828]	−137%	−26%	31%	–
CC(O)(CS(=O)(=O)c1ccc(F)cc1)C(=O)Nc1ccc(C#N)c(C(F)(F)F)c1 (stereo not shown) [CAS, bicalutamide, reference compound]	74 ± 2 (n = 23) %	89 ± 1 (n = 26) %	53 ± 2 (n = 26) %	–
Cc1c(N2C(=O)N(CCCOc3ccc(-c4cc[n+]([O-])cc4Cl)cc3)C(C)(C)C2=O)ccc(C#N)c1Cl [EM-9313]	–	–	–	CX + DHT Antagonistic activity % Inhibition Bulbo (0.1 mg/rat po): −31 ± 17 (n = 2, 0.1 mg/rat) %; CX + DHT Antagonistic activity % Inhibition SV (0.1 mg/rat po): 47 ± 20 (n = 2, 0.1 mg/rat) %; CX + DHT Antagonistic activity % Inhibition Prostate (0.1 mg/rat/po): 21 ± 8 (n = 2, 0.1 mg/rat) %
CC1(C)C(=O)N(c2ccc(C#N)c(C(F)(F)F)c2)C(=S)N1CCCOc1ccc(-c2ccnc(F)c2)cc1 [EM-8923]	61%	83%	50%	–
Cc1c(N2C(=O)C(C)(C)N(CCCOc3ccc(-c4ccncc4)c(Cl)c3)C2=S)ccc(C#N)c1Cl [EM-8887]	−134%	−64%	32%	–
Cc1c(N2C(=O)N(CCCOc3ccc(-c4ccncc4)c(C(F)(F)F)c3)C(C)(C)C2=O)ccc(C#N)c1Cl [EM-9333]	–	–	–	CX + DHT Antagonistic activity % Inhibition Bulbo (0.1 mg/rat po): −17 ± 2 (n = 3, 0.1 mg/rat) %; CX + DHT Antagonistic activity % Inhibition SV (0.1 mg/rat po): 32 ± 3 (n = 3, 0.1 mg/rat) %; CX + DHT Antagonistic activity % Inhibition Prostate (0.1 mg/rat/po): 29 ± 9 (n = 3, 0.1 mg/rat) %

SMILES	CX + DHT Antagonistic activity % Inhibition Bulbo (0.5 mg/rat/po)	CX + DHT Antagonistic activity % Inhibition SV (0.5 mg/rat/po)	CX + DHT Antagonistic activity % Inhibition Prostate (0.5 mg/rat/po)	other results
CC1(C)C(=O)N(c2ccc(C#N)c(C(F)(F)F)c2)C(=O)N1CCCOc1ccc(-c2ccncc2)cc1F [EM-9055]	73%	91%	51%	–
CCNCc1ccc(OCCCN2C(=S)N(c3ccc(C#N)c(C(F)(F)F)c3)C(=O)C2(C)C)cc1 [EM-7148, reference compound]	–	–	–	CX + DHT Antagonistic activity % Inhibition Ventral prostate (0.5 mg/rat, s.c. (subcutaneous)): 58% and 58 (s.c.) %
Cc1c(N2C(=O)C(C)(C)N(CCCOc3ccc(-c4ccncc4)c(C(F)(F)F)c3)C2=S)ccc(C#N)c1C(F)(F)F [EM-8821]	−134%	−5%	34%	–
Cc1c(N2C(=O)C(C)(C)N(CCCOc3ccc(-c4ccncc4Cl)cc3)C2=S)ccc(C#N)c1Cl [EM-8977]	−121%	−15%	−11%	–
Cc1c(N2C(=O)N(CCCOc3ccc(-c4ccncc4)cc3Cl)C(C)(C)C2=O)ccc(C#N)c1Cl [EM-9251]	−46%	26%	45%	–
CC1(C)C(=O)N(c2ccc(C#N)c(Cl)c2)C(=O)N1CCCOc1ccc(-c2cc[n+]([O-])cc2)cn1 [EM-9225]	–	–	–	CX + DHT Antagonistic activity % Inhibition Bulbo (0.1 mg/rat po): 30 (0.1 mg/rat) %; CX + DHT Antagonistic activity % Inhibition SV (0.1 mg/rat po): 68 (0.1 mg/rat) %; CX + DHT Antagonistic activity % Inhibition Prostate (0.1 mg/rat/po): 32 0.1 mg/rat %
CC1(C)C(=O)N(c2ccc(C#N)c(C(F)(F)F)c2)C(=O)N1Cc1ccc(-c2cc[n+]([O-])cc2)c(F)c1 [EM-9228]	81%	94%	57%	–
Cc1c(N2C(=O)N(CCCOc3ccc(-c4cc[n+]([O-])cc4)cc3C(F)(F)F)C(C)(C)C2=O)ccc(C#N)c1Cl [EM-9319]	–	–	–	CX + DHT Antagonistic activity % Inhibition Bulbo (0.1 mg/rat po): −59 ± 4 (n = 2, 0.1 mg/rat) %; CX + DHT Antagonistic activity % Inhibition SV (0.1 mg/rat po): 39 ± 19 (n = 2, 0.1 mg/rat) %; CX + DHT Antagonistic activity % Inhibition Prostate (0.1 mg/rat/po): 26 ± 3 (n = 2, 0.1 mg/rat) %
CC1(C)C(=O)N(c2ccc(C#N)c(C(F)(F)F)c2)C(=O)N1CCCOc1ccc(-c2ccncc2)cn1 [EM-9114]	98%	88%	65%	–
CC1(C)C(=O)N(c2ccc(C#N)c(C(F)(F)F)c2)C(=O)N1CCCOc1ccc(-c2ccncc2)c(C(F)(F)F)c1 [EM-9089]	77%	89%	56%	–
CC1(C)C(=O)N(c2ccc(C#N)c(Cl)c2)C(=O)N1CCCOc1ccc(-c2cc[n+]([O-])cc2)c(F)c1 [EM-9117]	91 ± 11 (n = 2) %	90 ± 2 (n = 2) %	61 ± 9 (n = 2) %	–
Cc1c(N2C(=O)C(C)(C)N(CCCOc3ccc(-c4ccncc4)cn3)C2=S)ccc(C#N)c1Cl [EM-8815]	–	–	–	CX + DHT Antagonistic activity % Inhibition Bulbo (0.2 mg/rat po): −126 (0.2 mg/rat) %; CX + DHT Antagonistic activity % Inhibition SV (0.2 mg/rat po): −24 (0.2 mg/rat) %; CX + DHT Antagonistic activity % Inhibition Prostate (0.2 mg/rat po): 8 (0.2 mg/rat) %
CC1(C)C(=O)N(c2ccc(C#N)c(F)c2)C(=O)N1CCCOc1ccc(-c2cc[n+]([O-])cc2)cc1 [EM-9176]	–	–	–	CX + DHT Antagonistic activity % Inhibition Bulbo (0.1 mg/rat po): 17 (0.1 mg/rat) %; CX + DHT Antagonistic activity % Inhibition SV (0.1 mg/rat po): 51 (0.1 mg/rat) %; CX + DHT Antagonistic activity % Inhibition Prostate (0.1 mg/rat/po): 34 (0.1 mg/rat) %
CC1(C)C(=O)N(c2ccc(C#N)c(C(F)(F)F)c2)C(=S)N1CCCOc1ccc(-c2ccncc2)c(C(F)(F)F)c1 [EM-8890]	25%	86%	50%	–
CC1(C)C(=O)N(c2ccc(C#N)c(Cl)c2)C(=S)N1CCCOc1ccc(-c2cccnc2)cc1 [EM-9049]	53%	78%	51%	–
CC1(C)C(=O)N(c2ccc(C#N)c(C(F)(F)F)c2)C(=O)N1Cc1ccc(-c2cccnc2)cc1 [EM-9200]	78%	95%	56%	–
CC1(C)C(=O)N(c2ccc(C#N)c(C(F)(F)F)c2)C(=S)N1CCCOc1ccc(-c2ccncc2)c(Cl)c1 [EM-8888]	57%	81%	57%	–
CC1(C)C(=O)N(c2ccc(C#N)c(C(F)(F)F)c2)C(=S)N1CCCOc1ccc2cccnc2c1 [EM-8991]	58%	74%	41%	–

“And” between values parts separate entries of the source, which are not always exact repeats. Equal entries are not always repeated. Where two headings read alike, the source gives them in different places.
